Experimental data: US11369598B2, “Treatment of T-cell mediated diseases” (Ampio Pharmaceuticals, Inc., priority 2003, dated 2022)

Legend:
[1] = Absorption from isolated perfused rat intestine; format: in vitro ADME; settings: after 2 hours perfusion; approximately 1 mg DA-DKP or 1.4 mg EA-DKP injected into lumen of the duodenum
Protocol: The rat intestine from the pyloric sphincter to the rectum was marginally isolated and perfused via the mesenteric artery with an erythrocyte based perfusate containing bovine serum albumin. The effluent perfusate from the gut was collected by cannulation of the portal vein and re-circulated (after re-oxygenation). After an equilibration period, a solution (approximately 1 ml) containing approximately 1 mg of Asp-Ala diketopiperazine (DA-DKP) or 1.4 mg of Glu-Ala diketopiperazine (EA-DKP) was administered by injection into the lumen of the duodenum.
After dosing, serial samples of the perfusate were collected at timed intervals up to 2 hours past dosing. Those samples were centrifuged and the plasmas assayed for both cyclic dipeptides by tandem liquid chromatography mass spectrometry (LC-MS).

[2] = format: in vitro ADME; settings: isolated perfused rat liver (data not shown)
[3] = Crossing of the blood-brain barrier (preliminary data)
Text: Thus, DA-DKP and other diketopiperazines of the invention should be useful for treating nervous system disorders, such as multiple sclerosis.

[4] = Preliminary pharmacokinetics in rats after oral administration; format: in vivo; settings: oral dosing at 1.1-3.7 mg/kg body weight (DA-DKP) and 1.5-4.8 mg/kg body weight (EA-DKP), calculated from curve fit
Protocol: ; both were calculated from a curve fit equation for the data obtained).

Asp-Ala diketopiperazine [DA-DKP]
amount absorbed from the gut lumen into the circulation, of the dose administered [1]: 95%
first pass hepatic clearance [2]: lack of first pass hepatic clearance
lysis of TriPS cells (FIG. 2) (TriPS cells): No lysis
crossing of the blood-brain barrier [3]: cross the blood-brain barrier
Cmax [4]: 4 to 6 µg/mL

Glu-Ala diketopiperazine [EA-DKP]
amount absorbed from the gut lumen into the circulation, of the dose administered [1]: 100% and 112%
Cmax [4]: 0.6 to 1.1 µg/mL

Values joined by “and” are separate entries in the source; they are usually repeats but may differ in a detail not shown here. Equal values may be shown once.
